Experimental data published in patent US5830897A, “α- and β-amino acid hydroxyethylamino sulfonamides useful as retroviral protease inhibitors” (G. D. Searle & Co., priority 1995, dated 1998).

Biological target: T1, HIV protease (Human immunodeficiency virus type 1 group M subtype B, UniProt P04585)
T1 construct: HIV protease is diluted in the assay buffer to a final enzyme concentration of 12.3 nanomolar, based on a molecular weight of 10,780
Type: biochemical
Conditions: Table 16; enzyme assay
Protocol: The enzyme method is described below. […] The positive control is MVT-101 (Miller, M. et al, Science, 246, 1149 (1989)] The assay conditions are as follows:
Assay buffer: 20 mM sodium phosphate, pH 6.4
The above described substrate is dissolved in DMSO, then diluted 10 fold in assay buffer. Final substrate concentration in the assay is 80 μM.
The final concentration of DMSO is 14% and the final concentration of glycerol is 18%. The test compound is dissolved in DMSO and diluted in DMSO to 10× the test concentration; 10 μl of the enzyme preparation is added, the materials mixed and then the mixture is incubated at ambient temperature for 15 minutes. The enzyme reaction is initiated by the addition of 40 μl of substrate. The increase in fluorescence is monitored at 4 time points (0, 8, 16 and 24 minutes) at ambient temperature. Each assay is carried out in duplicate wells.

Work on COc1ccc(S(=O)(=O)N(CC(C)C)C[C@@H](O)[C@H](Cc2ccccc2)NC(=O)c2ccccc2C)cc1 [Table 16 Entry 29] yielded an IC50 of 5 nM.
